Biological target: recombinant human GSK3 enzyme (GSK-3β)
Assay type: biochemical
Method: Measurement of the Inhibition of GSK-3β
The enzyme inhibition assays were performed using the luminometric methodology of kinase-Glo®. The recombinant human GSK3 enzyme (catalogue no. 14-306) was acquired from Upstate (Dundee, UK). The prephosphorylated polypeptide was synthesised by American Peptide Inc. (Sunnyvale, Calif.). The luminescent kinase kit (catalogue no. V6711) was obtained from Promega. The ATP and the other reagents were purchased from Sigma-Aldrich (St. Louis, Mo.).
The assays were performed in buffer using 96-well plates. 10µl of the compound to be assayed (dissolved in DMSO at a concentration of 1 mM, and, in turn, dissolved in buffer to the concentration necessary for the experiment) and 10µl (20 ng) of the enzyme are added to each well, followed by 20µl of buffer containing 25µM of the substrate and 1µM of ATP. […] Following a half-hour incubation at 30° C., the enzymatic reaction is stopped with 40µl of the kinase-Glo® reagent. The luminescence is measured after ten minutes, using a POLARstar Optima multimode reader. The activity is proportional to the difference between the total ATP and the ATP consumed. The inhibitory activities were calculated as a function of the maximum activity, measured in the absence of inhibitor.

Substance: 6-Bromo-N′-dodecanoyl-4-hydroxy-2-oxo-2-hydroquinoline-3-carbohydrazide [Compound 47]
- IC50: 3.54 ± 0.18 µM

Substance: 6-Chloro-N′-dodecanoyl-4-hydroxy-2-oxo-2-hydroquinoline-3-carbohydrazide [Compound 48]
- IC50: 3.81 ± 0.12 µM

Substance: 6-Fluoro-N′-dodecanoyl-4-hydroxy-2-oxo-2-hydroquinoline-3-carbohydrazide [Compound 17]
- IC50: 5.81 ± 0.76 µM

Substance: 7-Chloro-N′-dodecanoyl-4-hydroxy-2-oxo-2-hydroquinoline-3-carbohydrazide [Compound 15]
- IC50: 3.12 ± 0.03 µM

Substance: N′-Dodecanoyl-4-hydroxy-2-oxo-2-hydroquinoline-3-carbohydrazide [Compound 13]
- IC50: 4.47 ± 0.29 µM
